This is an account of results in patent publication US20240254119A1 (THIRD HARMONIC BIO, INC., priority 2022, published 2024).

Amino acid sequences for entries named in this document (tags omitted). Residues count along the entry.
UniProt P10721, 26-976 limits assumed: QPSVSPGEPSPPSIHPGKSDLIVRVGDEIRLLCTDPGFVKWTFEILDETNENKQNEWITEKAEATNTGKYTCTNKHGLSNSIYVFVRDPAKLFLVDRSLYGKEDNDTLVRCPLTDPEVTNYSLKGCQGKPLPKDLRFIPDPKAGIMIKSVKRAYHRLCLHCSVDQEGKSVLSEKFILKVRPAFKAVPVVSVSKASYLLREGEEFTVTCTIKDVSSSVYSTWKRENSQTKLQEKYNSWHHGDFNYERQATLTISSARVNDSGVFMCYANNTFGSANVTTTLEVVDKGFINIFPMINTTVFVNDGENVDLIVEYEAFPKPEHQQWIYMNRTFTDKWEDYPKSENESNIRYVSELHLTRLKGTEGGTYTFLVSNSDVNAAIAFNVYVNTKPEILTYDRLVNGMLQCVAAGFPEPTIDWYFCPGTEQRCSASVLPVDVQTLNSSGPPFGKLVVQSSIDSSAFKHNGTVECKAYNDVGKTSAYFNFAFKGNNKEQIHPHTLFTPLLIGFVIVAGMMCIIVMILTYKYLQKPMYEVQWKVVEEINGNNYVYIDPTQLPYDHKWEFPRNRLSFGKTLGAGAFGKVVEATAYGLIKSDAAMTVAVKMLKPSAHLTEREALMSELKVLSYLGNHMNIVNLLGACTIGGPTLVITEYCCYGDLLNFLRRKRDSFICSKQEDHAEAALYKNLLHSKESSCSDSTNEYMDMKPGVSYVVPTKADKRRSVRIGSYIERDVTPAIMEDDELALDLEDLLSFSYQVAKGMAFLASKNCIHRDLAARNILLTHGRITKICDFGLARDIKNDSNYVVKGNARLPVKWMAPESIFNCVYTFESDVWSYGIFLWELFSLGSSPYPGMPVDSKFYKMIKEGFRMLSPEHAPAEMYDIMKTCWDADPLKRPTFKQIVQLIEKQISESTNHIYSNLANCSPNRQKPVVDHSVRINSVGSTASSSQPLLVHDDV

For the test, the target named is wtKIT (Homo sapiens, UniProt P10721). Put plainly: HTRF biochemical assay, wtKIT (phosphorylation of a peptide substrate). Particulars: read-out: KIT Biochemical IC50 avg, Table 4. (In general: In TR-FRET formats the signal depends on donor and acceptor labels being close together.)

As usually defined, the IC50 is the concentration at which inhibition is half-maximal.

SMILES strings stand for the structures.

With `Cc1ccc(-c2noc(C[C@@H](C)O)n2)cc1NC(=O)c1cnc2cc(OCCCN3CCCC3)ccn12`, the half-inhibitory concentration (IC50) is < 50 nM.
Take `Cc1ccc(-c2noc(C[C@H]3CCCO3)n2)cc1NC(=O)c1cnc2cc(-c3cscn3)ccn12`: the IC50 was < 50 nM.
For the compound `CCC(O)Cc1nc(-c2ccc(C)c(NC(=O)c3cnc4cc(OCCCN5CCCC5)ccn34)c2)no1` (single isomer, unassigned), the IC50 is < 50 nM.
For `Cc1ccc(-c2noc(C3CC(C)N3)n2)cc1NC(=O)c1cnc2cc(F)ccn12` (single isomer, unassigned), the IC50 lay in the range of 50 to 500 nM.
As for `Cc1ccc(-c2noc(C3CC(O)C3)n2)cc1NC(=O)c1cnc2cc(-c3ccn(C)n3)ccn12` (single isomer, unassigned), the IC50 is < 50 nM.
Turning to `Cc1ccc(-c2noc(CC(O)C(F)F)n2)cc1NC(=O)c1cnc2cc(COCC(C)(C)O)ccn12` (single isomer, unassigned), the IC50 was < 50 nM.
On to `Cc1ccc(-c2noc(CC3CCCO3)n2)cc1NC(=O)c1cnc2cc(Cl)ccn12` (single isomer, unassigned), for which the IC50 was < 50 nM.
With `Cc1ccc(-c2noc([C@H]3C[C@@H]3F)n2)cc1NC(=O)c1cnc2cc(COCC(O)C(F)(F)F)ccn12` (single isomer, unassigned), the IC50 is 50 to 500 nM.
For `Cc1ccc(-c2noc([C@H]3C[C@@H]3F)n2)cc1NC(=O)c1cnc2cc(OC(C)C(F)(F)F)ccn12` (single isomer, unassigned), the IC50 was in the range of 50 to 500 nM.
